From PMC8230603, “Rad52 Oligomeric N-Terminal Domain Stabilizes Rad51 Nucleoprotein Filaments and Contributes to Their Protection against Srs2” (Cells, 2021)

Target: T1, Rad52-V95I-FLAG (expressed in yeast) (S. cerevisiae, UniProt P06778 1-471, V95I)
T1 construct: Rad52, S. cerevisiae, with V95I; the RAD52 gene with a C-terminal tag; amino acids are numbered from the first AUG codon in the RAD52 mRNA; Mutation isolated from a random RAD52 library; also called FLAG-tagged Rad52-V95I; source: S. cerevisiae, rad52-V95I-FLAG allele on a centromeric YCplac111 plasmid, in whole-cell extract; not shown: His-FLAG (printed as 3His-6FLAG and as 6His-3FLAG), …
Assay: co-IP; yeast whole-cell extract (1 mg); Rad52-FLAG precipitated with anti-FLAG antibody, eluted with 3XFLAG peptide; Rad59-MYC detected with anti-MYC
Conditions: partners not purified

fold reduction of co-immunoprecipitated Rad59 against WT Rad52: 2 fold
B1: Rad59-MYC (natural protein, S. cerevisiae, UniProt Q12223 1-238, looked up)
chain: MTIQAKPSSSISYDSTTYGTAPGLDIKEFQIIEDWNGRPASAWSVQRIGLLQSKIERYTYNIYHNNKYGKHNLSKLIPGHALIQFANETFGYDGWRMDVIDVEARECQPFTAVNNGENTNTSEVKYTVVAEAQVKVTLKDGTNTQCGGLGRITLSSRGECYNRSKKEAVGDALKKALLSFEKIILDYETKITNNYYVDGLYGSKKIKNEANTNYNLLSATNSKPTFIKLEDAKGTHIK
notes: Rad59, the Rad52 paralog, S. cerevisiae; also called MYC-tagged Rad59; source: S. cerevisiae, in whole-cell extract
